Test results published in patent US8133912B2 (priority 2006, dated 2012).

Legend:
cell growth = assay: cytotoxicity, 50% inhibition of cell growth concentration (IC50); format: cell-based; conditions: cytotoxicity examination, 37° C., 24 hours
mouse = conditions: oral toxicity; cited from earlier work

Substance	IC50 (50% Growth inhibition) (cell growth) [µg/mL]	LD50 (50% Lethal dose) (mouse) [mg/kg]
arsenobetaine (trimethyl arsonium acetic acid)	>10000	>10000
arsenocholine	>10000	6500
dimethylated arsinic acid	320	1200
monomethylated arsenic acid	1200	1800
trimethylarsineoxide	>10000	10600
